Source: PubChem BioAssay (NCATS)
This is a selection; strong and weak results do not stand in their true shares. Records with an inconclusive call do not appear. Active and inactive are the calls of the source. Calls come from the whole dose curve; as a rule, active = well fitted curve in the direction sought with a large enough effect; inconclusive = small, poorly fitted or top-dose-only effect, or another doubt; inactive = no such curve, though single readings can be large; an effect the other way counts as inactive or inconclusive.

How the values were obtained:
[1] = Cell Viability - LYMP2-022 (AID 987); details: LYMP2-022 lymphoblastoid cell viability; at 92.2 µM (top of the series);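 note: 0% = DMSO alone and full effect = tetraoctylammonium bromide at 92 µM; nearly all actives have a fitted effect of over 55% in size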
In short: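 In this qHTS cytotoxicity screen, compound titrations were incubated 24 hr at 37 C with human lymphoblastoid cells in complete medium. Luciferase-based ATP luminescence provided the viability signal.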

[2] = Cell Viability - LYMP2-024 (AID 988); details: LYMP2-024 lymphoblastoid cell viability; at 92.2 µM (top of the series);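 note: plate controls were DMSO only for no effect and 92 µM tetraoctylammonium bromide for full effect; nearly all actives have a fitted effect of over 60% in size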
In short: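 Cells at 2500 per well received compound for 24 hr after a 5 hr settling period. Viability was scored by CellTiter-Glo luminescence, with AC50 from Hill fits.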

[3] = Cell Viability - LYMP1-002 - Assay at 24 hr (AID 993); details: LYMP1-002 lymphoblastoid cells viability; at 92.2 µM (top of the series); note: % is set by controls: 0 for no effect and ±100 for the full control effect
In short: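 Viability was judged from intracellular ATP using a luciferase read-out, following a 24-hour compound incubation at 37 C of lymphoblastoid cells seeded at 2500 per well. Concentration-response data were fitted to the Hill equation for AC50.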

[4] = Cell Viability - LYMP1-002 - Assay at 40 hr (AID 994); details: LYMP1-002 lymphoblastoid cell viability; at 92.2 µM (top of the series);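 note: 0% = DMSO only and full inhibition = 92 µM tetraoctylammonium bromide; nearly all actives have a fitted effect of over 60% in size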
Excerpt: (§1) NIH Chemical Genomics Center [NCGC]
(§2) NIH Molecular Libraries Screening Centers Network [MLSCN]
(§3) National Institutes of Environmental Health Sciences [NIEHS]
(§4) National Toxicology Program [NTP]
We have developed a 1536-well cell-based assay for quantitative high throughput screening (qHTS) against a number of cell lines to determine in vitro cytotoxicity of small molecules. This particular assay uses a human lymphoblastoid cell line (LYMP1-002) purchased from Coriell Institute for Medical Research.
(§5) NCGC Assay Protocol Summary:
(§6) The CellTiter-Glo luminescent cell viability assay (Promega) is a homogeneous method to measure the number of viable cells in culture. The end point readout of this assay is based on quantitation of intracellular ATP, an indicator of metabolic activity, using the luciferase reaction. Luciferase catalyzes the oxidation of beetle Luciferin to oxyluciferin and light in the presence of ATP. The luminescent signal is proportional to amount of ATP present.
(§7) Using the CellTiter-Glo luminescent cell viability assay, the amount of cellular ATP was measured in the lymphoblastoid cell line with complete culture medium following compound treatment for 40 hours. The assay was performed in opaque white Kalypsys 1536-well plates. In the screen, tetraoctylammonium bromide was used as positive control. Library compounds were measured for their ability to cause acute toxicity in the cell line, as reflected by a decrease in intracellular ATP levels, in a concentration-dependent manner. […] AC50 values were determined from concentration-response data modeled with the standard Hill equation.
(§8) qHTS protocol for CellTiter Glo lymphoblastoid cellular assay
(§9) [Step] [Parameter] [Value] [Description]
(§10) 1. Reagent; 5 uL; 2500 lymphoblastoid cells/well
(§11) 2. Time; 5 hr; 37 C incubation
(§12) 4. Controls; 23 nL; Tetraoctylammonium bromide 6.4pM to 92 uM
5. Time; 40 hr; 37 C incubation
(§13) 6. Reagent; 5 uL; CellTiter Glo reagent
(§14) 7. Time; 30 min; Room Temperature
(§15) 8. Detection; Luminescence; Viewlux plate reader
(§16) Keywords: cell viability, cytotoxicity, lymphoblastoid cell line, luminescence, NTPHTS, NTPHTS_NCGC, NIEHS, DSSTox, MLSMR, MLSCN, NIH Roadmap, qHTS, NCGC

[5] = Cell Viability - LYMP2-014 (AID 983); details: LYMP2-014 lymphoblastoid cells, viability qHTS; at 92.2 µM (top of the series);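 note: cells exposed to compound for 24 h at 37 °C; plate controls were DMSO only for no effect and 92 µM tetraoctylammonium bromide for full effect; nearly all actives have a fitted effect of over 50% in size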
In short: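 Quantitative HTS in lymphoblastoid cells: 24 hr compound exposure, then CellTiter-Glo ATP luminescence. Positive control was tetraoctylammonium bromide, 6.4pM to 92 uM.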

[6] = Cell Viability - LYMP2-016 (AID 984); details: LYMP2-016 lymphoblastoid cell viability, qHTS; at 92.2 µM (top of the series); note: % is set by controls: 0 for no effect and ±100 for the full control effect; nearly all actives have a fitted effect of over 55% in size
Excerpt: as §1, §2, §3, §4
We have developed a 1536-well cell-based assay for quantitative high throughput screening (qHTS) against a number of cell lines to determine in vitro cytotoxicity of small molecules. This particular assay uses a human lymphoblastoid cell line (LYMP2-016) purchased from Coriell Institute for Medical Research.
as §5, §6
as §7, with “24” for “40”
as §8, §9, §10, §11, §12
5. Time; 24 hr; 37 C incubation
as §13, §14, §15, §16

[7] = Cell Viability - LYMP2-018 (AID 985); details: LYMP2-018 lymphoblastoid cells, viability (qHTS); at 92.2 µM (top of the series);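 note: plate controls were DMSO only for no effect and tetraoctylammonium bromide at 92 µM for full effect; nearly all actives have a fitted effect of over 50% in size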
In short: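 In this qHTS viability assay, cells are treated for 24 hr and cellular ATP is quantified by luciferase-based luminescence, with tetraoctylammonium bromide as positive control.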

[8] = Cell Viability - LYMP2-020 (AID 986); details: LYMP2-020 lymphoma cell viability, qHTS; at 92.2 µM (top of the series);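 note: cells exposed to compound for 24 h at 37 °C; plate controls were DMSO only for no effect and tetraoctylammonium bromide at 92 µM for full effect; nearly all actives have a fitted effect of over 55% in size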
In short: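 Cells at 2500 per well receive a 24 hr compound exposure at 37 C. Viability is measured as ATP-dependent luciferase luminescence, with AC50 modeled from qHTS concentration-response curves.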

[9] = Cell Viability - LYMP2-026 (AID 989); details: LYMP2-026 lymphoblastoid cell viability, qHTS; at 92.2 µM (top of the series);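 note: cells exposed to compound for 24 h at 37 °C; % is set by controls: 0 for no effect and ±100 for the full control effect; nearly all actives have a fitted effect of over 50% in size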
In short: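 Acute toxicity screen in complete culture medium, with 24 hr compound exposure at 37 C. Viability read as cellular ATP via luciferase reaction, with tetraoctylammonium bromide (6.4pM to 92 uM) as positive control.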

[10] = molecular target: alpha-glucosidase (Oryza sativa, rice) (UniProt Q653V4); test: Counterscreen for Glucocerebrosidase Inhibitors: qHTS Assay for Rice alpha-Glucosidase at pH 5.0 (AID 997); details: rice alpha-glucosidase enzyme activity; at 76.9 µM (top of the series);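 note: 0% = full activity with enzyme and -100% = basal without enzyme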
In short: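 Endpoint fluorogenic assay at pH 5.0: compounds (0.7 nM to 77 uM) titrated against 4 nM rice enzyme and 400 uM 4-MU-alpha-glucoside for 20 min at room temperature; NaOH/glycine stop, read ex 365/em 440 nm, Hill-fitted AC50.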

[NH4+].[O-][Cl+3]([O-])([O-])[O-]
inactive: viability change, negative = cytotoxic [1] -22.3% | activity change, negative = cytotoxicity [2] 1.31% | activity change, negative = cytotoxicity [3] 0.659% | viability change, negative = cytotoxic [4] -4.29%

Cc1cccc([N+](=O)[O-])c1[N+](=O)[O-]
inactive: activity change, negative = cytotoxicity [5] -9.59% | activity change, negative = cytotoxicity [6] -3.53% | activity change, negative = cytotoxicity [7] -7.97% | activity change, negative = viability loss [8] -15.5% | viability change, negative = cytotoxic [1] -4.88% | activity change, negative = cytotoxicity [2] -31.7% | activity change, negative = cytotoxic [9] -12.1% | activity change, negative = cytotoxicity [3] -5.08% | viability change, negative = cytotoxic [4] -5.99%

O=[N+]([O-])c1cccc([N+](=O)[O-])c1
inactive: activity change, negative = cytotoxicity [5] -10.5% | activity change, negative = cytotoxicity [6] -16.6% | activity change, negative = cytotoxicity [7] -1.49% | activity change, negative = viability loss [8] -5.5% | viability change, negative = cytotoxic [1] -12.1% | activity change, negative = cytotoxicity [2] -7.82% | activity change, negative = cytotoxic [9] -3.61% | activity change, negative = cytotoxicity [3] 2.53% | viability change, negative = cytotoxic [4] -10.9%

O=[N+]([O-])[O-].[NH4+]
inactive: activity change, negative = cytotoxicity [5] -15.2% | activity change, negative = cytotoxicity [6] -5.47% | activity change, negative = cytotoxicity [7] -5.43% | activity change, negative = viability loss [8] -1.6% | viability change, negative = cytotoxic [1] 0.293% | activity change, negative = cytotoxicity [2] 4.85% | activity change, negative = cytotoxic [9] -6.11% | activity change, negative = cytotoxicity [3] 3.73% | viability change, negative = cytotoxic [4] -1.21%

Cc1ccc([N+](=O)[O-])c([N+](=O)[O-])c1
inactive: activity change, negative = cytotoxicity [3] -7.91%

N#[O+].[C-]#N.[C-]#N.[C-]#N.[C-]#N.[C-]#N.[Fe+2].[Na+].[Na+]
inactive: activity change, negative = inhibition [10] -2.59%

CCOP(=O)(CC)OCC
inactive: activity change, negative = cytotoxicity [5] 3.17% | activity change, negative = cytotoxicity [6] 0.427% | activity change, negative = cytotoxicity [7] -11.9% | activity change, negative = viability loss [8] -8.26% | viability change, negative = cytotoxic [1] 5.15% | activity change, negative = cytotoxicity [2] -9.96% | activity change, negative = cytotoxic [9] -2.08% | activity change, negative = cytotoxicity [3] -0.954% | viability change, negative = cytotoxic [4] 3.49%

Cc1ccc([N+](=O)[O-])cc1[N+](=O)[O-]
inactive: activity change, negative = cytotoxicity [5] 2.61% | activity change, negative = cytotoxicity [6] -7.05% | activity change, negative = cytotoxicity [7] -10.4% | activity change, negative = viability loss [8] 1.82% | viability change, negative = cytotoxic [1] -10.2% | activity change, negative = cytotoxicity [2] -7.11% | activity change, negative = cytotoxic [9] 6.73% | activity change, negative = cytotoxicity [3] -1.07% | viability change, negative = cytotoxic [4] -9.52%

CCC(C)(OO)OOC(C)(CC)OO (stereo not drawn)
inactive: activity change, negative = cytotoxicity [5] 6.65% | activity change, negative = cytotoxicity [6] -9.43% | activity change, negative = cytotoxicity [7] -7.48% | activity change, negative = viability loss [8] -6.45% | viability change, negative = cytotoxic [1] -27.6% | activity change, negative = cytotoxic [9] 0.553% | activity change, negative = cytotoxicity [3] -6.49% | viability change, negative = cytotoxic [4] -8.03%

Cc1c([N+](=O)[O-])cccc1[N+](=O)[O-]
inactive: activity change, negative = cytotoxicity [5] -5.34% | activity change, negative = cytotoxicity [6] -1.48% | activity change, negative = cytotoxicity [7] -8.67% | activity change, negative = viability loss [8] 6.21% | viability change, negative = cytotoxic [1] 12% | activity change, negative = cytotoxicity [2] -1.74% | activity change, negative = cytotoxic [9] 4.71% | activity change, negative = cytotoxicity [3] 4.39% | viability change, negative = cytotoxic [4] -2.2%
